# BindingDB's records for patent US9670214 (Dana-Farber Cancer Institute, 2017)
# Chains of the proteins cited; added tags and fusions are not shown. A line that says so, or that is headed by a name, gives the form on record, which may keep a tag or linker.
# UniProt A9UEZ6, as listed by the source T818I: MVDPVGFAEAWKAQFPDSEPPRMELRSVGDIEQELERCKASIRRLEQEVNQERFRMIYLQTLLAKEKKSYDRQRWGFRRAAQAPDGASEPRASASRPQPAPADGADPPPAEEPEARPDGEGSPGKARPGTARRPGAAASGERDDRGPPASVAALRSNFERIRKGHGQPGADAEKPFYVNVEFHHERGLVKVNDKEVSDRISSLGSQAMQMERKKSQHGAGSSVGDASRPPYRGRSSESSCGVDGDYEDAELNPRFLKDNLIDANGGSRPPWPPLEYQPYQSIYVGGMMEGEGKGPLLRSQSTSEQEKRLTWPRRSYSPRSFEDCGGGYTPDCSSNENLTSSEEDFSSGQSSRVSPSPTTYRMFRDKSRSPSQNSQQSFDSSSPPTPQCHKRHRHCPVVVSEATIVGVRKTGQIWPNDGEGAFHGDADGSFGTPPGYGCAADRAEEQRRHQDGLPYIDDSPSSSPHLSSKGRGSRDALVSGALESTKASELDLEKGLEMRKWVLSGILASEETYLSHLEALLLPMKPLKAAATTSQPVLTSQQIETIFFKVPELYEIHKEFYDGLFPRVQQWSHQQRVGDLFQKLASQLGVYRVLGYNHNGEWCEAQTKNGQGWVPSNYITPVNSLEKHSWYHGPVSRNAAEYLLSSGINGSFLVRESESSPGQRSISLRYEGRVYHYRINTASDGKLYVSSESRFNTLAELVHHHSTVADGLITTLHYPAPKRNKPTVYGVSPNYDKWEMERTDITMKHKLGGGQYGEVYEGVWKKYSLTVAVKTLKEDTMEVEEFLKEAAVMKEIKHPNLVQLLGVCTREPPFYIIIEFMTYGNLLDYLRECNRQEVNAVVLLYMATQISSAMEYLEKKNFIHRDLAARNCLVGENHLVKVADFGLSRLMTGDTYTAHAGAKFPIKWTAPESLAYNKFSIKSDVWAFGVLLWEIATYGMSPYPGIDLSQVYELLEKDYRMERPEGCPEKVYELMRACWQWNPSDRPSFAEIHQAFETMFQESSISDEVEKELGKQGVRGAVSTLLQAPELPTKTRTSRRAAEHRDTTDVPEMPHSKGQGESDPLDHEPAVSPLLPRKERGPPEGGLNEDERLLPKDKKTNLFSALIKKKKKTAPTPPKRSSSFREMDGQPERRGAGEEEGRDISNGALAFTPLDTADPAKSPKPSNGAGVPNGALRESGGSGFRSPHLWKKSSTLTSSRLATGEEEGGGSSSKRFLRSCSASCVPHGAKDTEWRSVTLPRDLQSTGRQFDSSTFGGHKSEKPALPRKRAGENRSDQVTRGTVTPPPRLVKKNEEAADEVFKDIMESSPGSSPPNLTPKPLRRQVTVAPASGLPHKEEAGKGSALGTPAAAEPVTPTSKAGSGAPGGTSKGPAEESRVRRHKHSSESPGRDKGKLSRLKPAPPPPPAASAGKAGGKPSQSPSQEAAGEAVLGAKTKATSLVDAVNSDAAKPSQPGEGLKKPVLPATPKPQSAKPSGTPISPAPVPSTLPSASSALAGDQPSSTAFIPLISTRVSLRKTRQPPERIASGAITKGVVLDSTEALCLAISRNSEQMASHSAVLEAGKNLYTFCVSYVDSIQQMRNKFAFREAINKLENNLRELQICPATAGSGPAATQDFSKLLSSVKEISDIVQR
# Molecular target: Non-specific protein-tyrosine kinase [T818I] (Homo sapiens, UniProt A9UEZ6, T818I)
# Assay: Kinase Assay
# Conditions: pH 7.5
# Excerpt: Recombinant abl was expressed in Sf9 insect cells and purified as described above. Bcr-abl immune complexes were obtained with Ab-3 anti-abl monoclonal antibody (Oncogene Science) from Ba/F3.p210 lysates as previously described. […] (Calbiochem buffer and protocol). The reaction was stopped by addition of Laemmli buffer and the proteins were resolved by SDS-PAGE in a 4-20% gel. The phosphoproteins were visualized by autoradiography and the autophosphorylation quantitated using a phosphoimager (STORM, Molecular Devices).
structure (smiles),measurement,value
"FC(F)(F)Oc1ccc(Nc2cc(-c3cc(NCCN4CCOCC4)ncn3)ncn2)cc1 [US9670214, TABLE 16.51]",IC50,> 10 µM
"COc1ccc(Cn2ccc3c(Nc4ccc(OC(F)(F)F)cc4)ncnc32)cc1 [US9670214, TABLE 12.6]",IC50,> 10 µM
